Measurements taken from publication PMC4125821, “Crystal structures of the S6K1 kinase domain in complexes with inhibitors” (Journal of Structural and Functional Genomics, 2014).

Sequences of proteins named here, by UniProt entry; tags and fusion partners are left off. Residues count along the entry.
UniProt P23443, 1-421 T412E: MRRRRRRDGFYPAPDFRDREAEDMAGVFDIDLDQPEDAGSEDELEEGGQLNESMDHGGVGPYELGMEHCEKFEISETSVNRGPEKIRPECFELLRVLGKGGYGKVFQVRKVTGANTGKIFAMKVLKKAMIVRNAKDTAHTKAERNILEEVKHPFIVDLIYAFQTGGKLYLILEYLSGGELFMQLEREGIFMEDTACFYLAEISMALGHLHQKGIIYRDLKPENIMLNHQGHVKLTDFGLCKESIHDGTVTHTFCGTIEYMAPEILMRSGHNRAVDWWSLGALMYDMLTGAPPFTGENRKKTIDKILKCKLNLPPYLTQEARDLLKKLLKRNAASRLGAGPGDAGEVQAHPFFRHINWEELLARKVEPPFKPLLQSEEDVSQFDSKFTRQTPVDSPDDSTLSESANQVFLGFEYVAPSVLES

Target: T1, human S6K1 (RPS6KB1) protein, residues 1–421 with the T412E mutation (Homo sapiens, UniProt P23443, T412E)
T1 construct: the human S6K1 (RPS6KB1) protein, residues 1–421 with the T412E mutation; purchased Carna Biosciences (Kobe, Japan)
Assay: Kinase mobility shift assay
Format: biochemical
Conditions: S6K1 residues 1–421, T412E mutation; 2 nM enzyme; 30 min pre-incubation; ATP 0.5 mM; FL-Peptide 26 1.5 μM
Description: The mobility shift assay was performed as reported. Briefly, the reaction buffer consisted of 50 mM Hepes (pH 7.4), containing 10 mM MgCl2, 0.01 %(w/v) Brij-35, 1 mM dithiothreitol (DTT), 1 %(v/v) Protease Inhibitor Cocktail Set V [Calbiochem (EMD Millipore), Darmstadt, Germany], 1 %(v/v) Phosphatase Inhibitor Cocktail Set III [Calbiochem (EMD Millipore), Darmstadt, Germany], and 0.6 %(v/v) DMSO. For the kinase assay, the human S6K1 (RPS6KB1) protein, residues 1–421 with the T412E mutation, was purchased from Carna Biosciences (Kobe, Japan). […] The S6K1 protein (final concentration of 2 nM) in the reaction buffer was first incubated with different concentrations of the compounds (0–10 μM) for 30 min. After this pre-incubation step, a FAM-labeled substrate peptide, FL-Peptide 26 (5-FAM-ARKRERTYSFGHHA-COOH) (PerkinElmer, Waltham, MA), and ATP were added at final concentrations of 1.5 μM and 0.5 mM, respectively. The kinase reactions were performed at room temperature, and stopped by the addition of termination buffer [50 mM Hepes buffer (pH 7.4), containing 140 mM EDTA and 0.01 %(w/v) Brij-35]. The phosphorylated and unphosphorylated peptides thus obtained were separated and quantified with a Lab-Chip EZ Reader II (PerkinElmer, MA). Data were fitted using a sigmoidal dose–response regression algorithm in GraphPad Prism (GraphPad Software, La Jolla, CA).

- IC50: 0.015 µM
SMILES: CCc1cncnc1N1CCN(Cc2nc3cc(C(F)(F)F)ccc3[nH]2)CC1 [PF-4708671, reference compound]
